Biological target: CTLA-4 on the functional cells of the Promega anti-CTLA-4 blocking assay kit (UniProt P16410)
Experiment: cell-based or functional assay

EC50 (µg/ml), luciferase reporter, Promega anti-CTLA-4 blocking assay (CD80/CD86 aAPC/Raji cells with functional cells expressing CTLA-4): 0.933 µg/mL
Substance: Yervoy (Ipilimumab) (antibody)

From patent US20210301021A1
